Experimental data reported in ChEMBL document CHEMBL5543128, “Recent Discovery and Development of Inhibitors that Target CDK9 and Their Therapeutic Indications” (J Med Chem, 2024).

The chains behind the UniProt entries cited, without tags or fusion partners.
UniProt P50750, whole entry: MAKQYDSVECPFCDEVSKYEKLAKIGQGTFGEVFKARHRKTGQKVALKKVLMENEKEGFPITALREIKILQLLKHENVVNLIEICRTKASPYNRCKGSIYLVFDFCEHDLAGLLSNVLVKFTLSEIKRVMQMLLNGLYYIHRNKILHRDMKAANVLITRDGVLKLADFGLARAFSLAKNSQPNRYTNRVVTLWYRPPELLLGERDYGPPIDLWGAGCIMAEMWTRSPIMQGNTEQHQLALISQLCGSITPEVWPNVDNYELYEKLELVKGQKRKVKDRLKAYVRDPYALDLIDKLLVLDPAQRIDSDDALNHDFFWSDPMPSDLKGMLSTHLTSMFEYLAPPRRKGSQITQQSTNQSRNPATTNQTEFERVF

Biological target: CDK9/cyclin T1 (Homo sapiens, UniProt P50750)
Assay: Inhibition of CDK9/cyclin T1 (unknown origin)
Type: protein-complex assay

IC50: 0.93 µM
Compound: O=c1cc(-c2cccc(O)c2)oc2c1ccc1occc12
